We go through two compounds from ChEMBL document CHEMBL5321206, “New amidine-benzenesulfonamides as iNOS inhibitors for the therapy of the triple negative breast cancer” (Eur J Med Chem, 2023).

The structures appear in SMILES notation. Where only a bound is given, the exact number is not on record here.

The assay is described as follows: Selectivity ratio of IC50 for inhibition of full length N-terminal his-tagged bovine eNOS (2 to 1205 residues) expressed in Escherichia coli to IC50 for inhibition of N-terminal his6-tagged recombinant human iNOS expressed in Escherichia coli.

For `Br.Cc1ccc(S(=O)(=O)NCc2cccc(CNC(=N)c3ccccc3)c2)cc1`, the Ratio IC50 is greater than 770.
For `N=C(NCc1ccc(NS(=O)(=O)c2ccc([N+](=O)[O-])cc2)cc1)c1ccccc1` the value was greater than 60.
